# Reference: US9512068B2, “Augmenting moieties for anti-inflammatory compounds” (dated 2016)
# Marks after values point to notes of the source that are not given here.
# Columns and labels:
# [1] = test system: TPA-induced and CEES-induced injuries; assay: MEVM inflammation suppression score (average of TPA-induced and CEES-induced injuries); conditions: standard dose
# [2] = test system: CEES-induced inflammation; assay: Mouse Ear Vesicant Model (MEVM), CEES-induced inflammation; conditions: test compound 1.5 μmol on ear, 5 h, Irritant = vesicant-induced damage augmented, >100% = below untreated control
# TPA-induced inflammation = assay: Mouse Ear Vesicant Model (MEVM), TPA-induced inflammation; conditions: test compound 1.5 μmol on ear, 5 h, Irritant = vesicant-induced damage augmented, >100% = below untreated control
Molecule,% suppression of CEES-induced inflammation [2],% suppression of TPA-induced inflammation (TPA-induced inflammation),also measured
COc1ccc2c(c1)c(CC(=O)O)c(C)n2C(=O)c1ccc(Cl)cc1,–,–,inflammation suppression score [1]: 39%
Cc1ccc(C(C)C)cc1O,19%,10%,–
CC1CCC(C(C)C)C(O)C1 (stereo not drawn),–,–,inflammation suppression score [1]: 38%
CC(C)Cc1ccc(C(C)C(=O)NCC(=O)OCCC(C)(C)C)cc1 (stereo not drawn),Irritant,18%,–
CC(C)(C)CCOC(=O)CNC(=O)Cc1ccccc1Nc1c(Cl)cccc1Cl,Irritant,45** %,–
Cc1ccc(C(C)C)cc1OC(=O)NCCCNCCCCNCCCNC(=O)Oc1cc(C(C)C)ccc1C,84%,89%,–
COc1cc(CNC(=O)[C@@H](NC(=O)C(C)c2ccc(CC(C)C)cc2)C(C)C)ccc1O (stereo partly drawn),94%,110%,–
CC(C)=CCC/C(C)=C/CO,–,–,inflammation suppression score [1]: 35%
COc1cc(CN)ccc1O,–,–,inflammation suppression score [1]: 35%
CCOC(=O)[C@@H](NC(=O)[C@@H](C)c1ccc2cc(OC)ccc2c1)C(C)C,equipotent,–,–
COc1ccc2cc([C@H](C)C(=O)N[C@@H](Cc3ccccc3)C(=O)OCCC(C)(C)C)ccc2c1,83%,42** %,% suppression of CEES-induced inflammation ([2]; listed as 4572): 83** %
COc1cc(CNC(=O)[C@@H](NC(=O)OCc2ccc(OC(C)=O)c(OC)c2)C(C)C)ccc1O,–,67%,–
COc1cc(CCC(C)=O)ccc1OC(=O)NCCCCNCCCNC(=O)Oc1ccc(CCC(C)=O)cc1OC,89%,93%,–
COc1ccc2cc([C@H](C)C(=O)NCC(=O)OCCC(C)(C)C)ccc2c1,66** %,54** %,–
C=C(C)[C@@H]1CC=C(COC(=O)NCc2ccc(O)c(OC)c2)CC1,–,76%,–
myrtenol,–,–,inflammation suppression score [1]: 6%
COc1ccc2cc([C@H](C)C(=O)N[C@H](C(=O)O)C(C)C)ccc2c1,44%,–,–
CC(C)(C)CCOC(=O)[C@@H]1CCCN1C(=O)Cc1ccccc1Nc1c(Cl)cccc1Cl,10%,76*** %,–
COc1ccc2cc([C@H](C)C(=O)N3CCC[C@H]3C(=O)OCCC(C)(C)C)ccc2c1,34%,Irritant,–
CC(C)Cc1ccc(C(C)C(=O)N2CCC[C@H]2C(=O)OCCC(C)(C)C)cc1 (stereo partly drawn),24%,35%,–
C=C(C)[C@@H]1CC=C(CO)CC1,–,–,inflammation suppression score [1]: 43%
CC(C)[C@H](NC(=O)Cc1ccccc1Nc1c(Cl)cccc1Cl)C(=O)OCCC(C)(C)C,85** %,31%,–
Cc1ccc(C(C)C)cc1OC(=O)NCCCCNCCCNC(=O)Oc1cc(C(C)C)ccc1C,71%,110%,% suppression of CEES-induced inflammation ([2]; trifluoroacetic acid salt): 83%; % suppression of TPA-induced inflammation (TPA-induced inflammation; trifluoroacetic acid salt): 100%

Molecule,% suppression of CEES-induced inflammation [2],% suppression of TPA-induced inflammation (TPA-induced inflammation),also measured
CC(C)=CCCC(C)=CCCC(C)=CCO,–,–,inflammation suppression score [1]: 69%
COc1cc(CNC(=O)[C@@H](NC(=O)OC/C=C(\C)CCC=C(C)C)C(C)C)ccc1O,–,91%,–
Cc1ccc(C(C)C)c(OC(=O)NCCCCN(CCCNC(=O)Oc2cc(C)ccc2C(C)C)C(=O)C(F)(F)F)c1,–,76%,–
COc1cc(CNC(=O)[C@@H](NC(=O)CC(C)O)C(C)C)ccc1O (stereo partly drawn),69%,–,–
C=CC(C)(CCC=C(C)C)OC(=O)NCc1ccc(O)c(OC)c1 (stereo not drawn),92%,–,–
CC(C)Cc1ccc(C(C)C(=O)N[C@H](C(=O)OCCC(C)(C)C)C(C)C)cc1 (stereo partly drawn),47%,Irritant,–
COc1cc(CO)ccc1O,–,–,inflammation suppression score [1]: 31%
Cc1ccc(C(C)C)c(O)c1,–,–,inflammation suppression score [1]: 14%
CC(C)Cc1ccc(C(C)C(=O)N[C@@H](Cc2ccccc2)C(=O)OCCC(C)(C)C)cc1 (stereo partly drawn),Irritant,Irritant,–
CC(C)(O)c1ccccc1,–,–,inflammation suppression score [1]: 16%
COc1ccc2c(c1)c(CC(=O)NCC(=O)OCCC(C)(C)C)c(C)n2C(=O)c1ccc(Cl)cc1,21%,55** %,–
COc1ccc2cc(C(C)C(=O)O)ccc2c1 (stereo not drawn),11%,–,inflammation suppression score [1]: 31%
CCOC(=O)[C@@H](NC(=O)OCc1ccc(OC(C)=O)c(OC)c1)C(C)C,72%,93%,–
C=CCc1ccc(OC(=O)NCCCCNCCCNC(=O)Oc2ccc(CC=C)cc2OC)c(OC)c1,73%,–,–
CN1C(C(=O)Nc2ccccn2)=C(O)c2ccccc2S1(=O)=O,–,–,inflammation suppression score [1]: 32%
COc1ccc2c(c1)c(CC(=O)N1CCC[C@H]1C(=O)OCCC(C)(C)C)c(C)n2C(=O)c1ccc(Cl)cc1,25%,68*** %,–
CC(C)(C)CCOC(=O)[C@H](Cc1ccccc1)NC(=O)Cc1ccccc1Nc1c(Cl)cccc1Cl,120** %,90** %,–
Cc1ccc(C(C)C)c(OC(=O)NCCCCNCCCNC(=O)Oc2cc(C)ccc2C(C)C)c1,–,100%,–
COc1ccc2c(c1)c(CC(=O)N[C@H](C(=O)OCCC(C)(C)C)C(C)C)c(C)n2C(=O)c1ccc(Cl)cc1,59%,107*** %,–
COc1ccc2c(c1)c(CC(=O)N[C@@H](Cc1ccccc1)C(=O)OCCC(C)(C)C)c(C)n2C(=O)c1ccc(Cl)cc1,62** %,79** %,–
COc1ccc2cc([C@H](C)C(=O)N[C@H](C(=O)OCCC(C)(C)C)C(C)C)ccc2c1,52%,22%,% suppression of CEES-induced inflammation ([2]; listed as 4596): 51%
COc1cc(CNC(=O)OC/C=C(\C)CCC=C(C)C)ccc1O,64%,–,–
